This note sets out measurements from patent US20100260668A1 (published 2010).

Assay [1] has as its target T1, VEGF (UniProt P15692-4 27-191).
T1 construct: Bought reagent
T1 sequence (looked up): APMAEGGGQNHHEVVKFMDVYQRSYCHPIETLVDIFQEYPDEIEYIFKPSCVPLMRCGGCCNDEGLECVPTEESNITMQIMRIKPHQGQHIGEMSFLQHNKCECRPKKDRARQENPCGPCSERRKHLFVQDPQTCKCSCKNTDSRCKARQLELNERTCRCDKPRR
Put plainly: Biacore SPR.

In assay [2] the target is T2, VEGF (UniProt P15692-4 27-191).
T2 sequence (looked up): T1 sequence (looked up)
Briefly: SPR (Biacore); N-terminal VD.

B1: DVD042 (bispecific antibody, human IgG1, kappa)
heavy: QVQLVQSGAEVKKPGASVKVSCKASGYTFTSYDINWVRQATGQGLEWMGWMNPNSGNTGYAQKFQGRVTMTRNTSISTAYMELSSLRSEDTAVYYCARDPYYYYYGMDVWGQGTTVTVSSASTKGPEVQLVESGGGLVQPGGSLRLSCAASGYTFTNYGMNWVRQAPGKGLEWVGWINTYTGEPTYAADFKRRFTFSLDTSKSTAYLQMNSLRAEDTAVYYCAKYPHYYGSSHWYFDVWGQGTLVTVSSASTKGPSVFPLAPSSKSTSGGTAALGCLVKDYFPEPVTVSWNSGALTSGVHTFPAVLQSSGLYSLSSVVTVPSSSLGTQTYICNVNHKPSNTKVDKKV[omitted - human IgG1 Fc]
light: QSVLTQPPSVSAAPGQKVTISCSGSSSNIENNHVSWYQQLPGTAPKLLIYDNNKRPSGIPDRFSGSKSGTSATLGITGLQTGDEADYYCETWDTSLSAGRVFGGGTKLTVLGQPKAAPDIQMTQSPSSLSASVGDRVTITCSASQDISNYLNWYQQKPGKAPKVLIYFTSSLHSGVPSRFSGSGSGTDFTLTISSLQPEDFATYYCQQYSTVPWTFGQGTKVEIKRTVAAPSVFIFPPSDEQLKSGTASVVCLLNNFYPREAKVQWKVDNALQSGNSQESVTEQDSKDSTYSLSSTLTLSKADYEKHKVYACEVTHQGLSSPVTKSFNRGEC
notes: N-terminal VD IGF1,2, C-terminal VD VEGF; also called DVD042H; DVD042L
On to B1, for which, in the assay with VEGF [1], the koff amounted to 1.46e-05 s⁻¹ and the kon worked out at 34500 M⁻¹ s⁻¹.

B2: DVD259 (bispecific antibody, human IgG1, kappa)
heavy: EVQLVESGGGLVQPGGSLRLSCAASGYTFTNYGMNWVRQAPGKGLEWVGWINTYTGEPTYAADFKRRFTFSLDTSKSTAYLQMNSLRAEDTAVYYCAKYPHYYGSSHWYFDVWGQGTLVTVSSASTKGPQVQLQQSGAELVKPGASVKISCKASGYTFTDYYINWVKLAPGQGLEWIGWIYPGSGNTKYNEKFKGKATLTIDTSSSTAYMQLSSLTSEDTAVYFCVRDSPFFDYWGQGTLLTVSSASTKGPSVFPLAPSSKSTSGGTAALGCLVKDYFPEPVTVSWNSGALTSGVHTFPAVLQSSGLYSLSSVVTVPSSSLGTQTYICNVNHKPSNTKVDKKV[omitted - human IgG1 Fc]
light: DIQMTQSPSSLSASVGDRVTITCSASQDISNYLNWYQQKPGKAPKVLIYFTSSLHSGVPSRFSGSGSGTDFTLTISSLQPEDFATYYCQQYSTVPWTFGQGTKVEIKRTVAAPDIVLTQSPDSLAVSLGERVTMNCKSSQSLLNSGMRKSFLAWYQQKPGQSPKLLIYWASTRESGVPDRFTGSGSGTDFTLTISSVQAEDVAVYYCKQSYHLFTFGSGTKLEIKRTVAAPSVFIFPPSDEQLKSGTASVVCLLNNFYPREAKVQWKVDNALQSGNSQESVTEQDSKDSTYSLSSTLTLSKADYEKHKVYACEVTHQGLSSPVTKSFNRGEC
notes: N-terminal VD VEGF, C-terminal VD PlGF; also called VD259H; VD259L
In the assay with VEGF [2], B2 showed a koff of 2.06e-05 s⁻¹ and a kon of 502000 M⁻¹ s⁻¹.
